Antibody variant affinities, Ab-14 heavy chain, assay B

All variants were tested on one target, the spike HR2 peptide PDVDLGDISGINAS (SARS-CoV-2).

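The starting antibody came from a phage panning campaign against this peptide. Designed CDR sequences, proposed from the first random library and measured here. Their group label is 14H_En_Gen (En: ensemble of fine-tuned language models; Gen: genetic algorithm). The scFvs were displayed on barcoded MATa yeast, the peptide on MATalpha yeast. The frequency of each diploid, read from paired DNA barcodes, reflects how well the two displayed proteins bind. Each replicate has its own calibration line, from reference interactions of the BCL2 family. The assay was run in six technical replicates.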

Parent scFv Ab-14: VH joined to VL by the linker GGGGSGGGGSGGGGS. Changes lie in the heavy chain CDRs alone.
VH: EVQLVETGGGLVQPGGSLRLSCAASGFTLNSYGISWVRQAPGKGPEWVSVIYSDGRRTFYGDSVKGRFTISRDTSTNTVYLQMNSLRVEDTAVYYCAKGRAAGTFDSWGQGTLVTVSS
VL: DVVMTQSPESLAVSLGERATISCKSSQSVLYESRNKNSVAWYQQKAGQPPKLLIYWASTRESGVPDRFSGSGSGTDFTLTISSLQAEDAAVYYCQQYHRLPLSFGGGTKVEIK

The parent's heavy chain CDRs are GFTLNSYGIS, VIYSDGRRTFYGDSVK, GRAAGTFDS; each variant's own CDRs replace them letter for letter.
Values are log10 of the apparent Kd in nM; lower means stronger binding.
Averages over replicates are reported, and they cover detected replicates only.
Where no diploid with the target was found in that replicate, the entry reads "nd": below detection, most likely a poor binder, though not proof of it.
The authors' rule: three or more of the six replicates give a measured affinity, fewer mean a poor binder.

For GFDLNEYGIS / VIYADGRRTAYADSVK / GEVAGTFDA, the assay gave -0.59, -0.46, -0.85, -0.51, -1.06, -0.69 (mean -0.69; controls 0 of 18).
For GFDLEEYGIS / VIYADGRRTAYADSVK / GNVAGTFDQ, the assay gave -0.08, -0.37, -0.39, -0.54, -0.41, -0.14 (mean -0.32; controls 0 of 18).
For GFDLNEYGIS / VIYADGMRTYYADDVK / GEVAGTFDV, the assay gave -0.63, 0.14, -0.89, -0.34, -0.71, -0.44 (mean -0.48; controls 0 of 18).
For GFDLDEYGIS / VIYADGKRTAYTDSVK / GNVAGTFDV, the assay gave -0.31, 0.02, 0.01, -0.08, -0.22, 0.36 (mean -0.03; controls 0 of 18).
For GFDLNEYGIS / VIYADGQRTVYADSVK / GEVAGTFDV, the assay gave -0.57, -0.48, -0.44, -0.20, -0.21, -0.27 (mean -0.36; controls 0 of 18).
For GFDLNEYGIS / VIYADGIRTAYIDSVK / GNVAGTFDV, the assay gave -0.69, -0.60, -0.80, -0.57, -0.87, -0.63 (mean -0.69; controls 1 of 18).
For GFDLDEYGIS / VIYADGVRTAYSDSVK / GSNAGTFDV, the assay gave nd, 0.54, 0.64, 0.89, nd, nd (mean 0.69; controls 0 of 18).
For GFDLNEYGIS / VIYADGQRTAYVDDVK / GNVAGTFDV, the assay gave -0.42, -0.60, -0.45, -0.49, -0.23, -0.19 (mean -0.40; controls 1 of 18).
For GFDLNEYGIS / VIYADGQRTAYADDVK / GNVAGTFDL, the assay gave -0.61, -0.68, -0.76, -0.68, -0.49, -0.34 (mean -0.59; controls 1 of 18).
For GFDLDEYGIS / VIYADGMRTAYSDDVK / GNVAGTFDV, the assay gave -0.63, -0.58, -0.94, -0.90, -0.82, -0.73 (mean -0.77; controls 0 of 18).
For GFDLDEYGIS / VIYADGMRTAYSDDVK / GENAGTFDI, the assay gave -0.05, -0.79, nd, -1.05, -0.55, -1.23 (mean -0.73; controls 0 of 18).
For GFDLNEYGIS / VIYADGVRTAYADSVK / GSNAGTFDT, the assay gave -0.08, -0.18, -0.33, -0.28, -0.51, 0.14 (mean -0.21; controls 0 of 18).
For GFDLEEYGIS / VIYADGQRTAYSDSVK / GNVAGTFDL, the assay gave -0.12, -0.51, -0.01, -0.67, -0.46, -0.48 (mean -0.38; controls 0 of 18).
For GFDLNEYGIS / VIYADGMRTYYADDVK / GNTAGTFDV, the assay gave 0.26, -0.12, -0.31, -0.35, -0.54, 0.04 (mean -0.17; controls 0 of 18).
For GFDLDEYGIS / VIYADGKRTAYADSVK / GNNAGTFDM, the assay gave -0.31, 0.08, -0.14, 0.13, -0.30, -0.39 (mean -0.16; controls 0 of 18).
For GFDLDEYGIS / VIYADGKRTAYADNVK / GNVAGTFDV, the assay gave -0.21, -0.05, -0.60, -0.63, -0.92, 0.27 (mean -0.36; controls 1 of 18).
For GFDLNEYGIS / VIYADGQRTAYSDSVK / GETAGTFDL, the assay gave -0.59, -0.09, -0.17, -0.78, -0.47, -0.13 (mean -0.37; controls 2 of 18).
For GFDLNEYGIS / VIYADGMRTMYADSVK / GNNAGTFDV, the assay gave 0.25, 0.41, -0.43, -0.29, 0.29, 0.37 (mean 0.10; controls 0 of 18).
For GFDLEEYGIS / VIYADGSRTAYSDSVK / GNVAGTFDV, the assay gave -0.43, -0.63, -0.83, -0.03, -0.96, -0.70 (mean -0.60; controls 0 of 18).
For GFDLNEYGIS / VIYADGVRTAYVDNVK / GEVAGTFDV, the assay gave -0.39, -0.38, -0.38, -0.71, -0.66, -0.40 (mean -0.49; controls 0 of 18).
For GFDLDEYGIS / VIYADGQRTAYADDVK / GTNAGTFDV, the assay gave 0.06, 0.39, 0.14, -0.21, 0.02, -0.47 (mean -0.01; controls 0 of 18).
For GFDLNEYGIS / VIYADGVRTFYADDVK / GQNAGTFDV, the assay gave -0.39, -0.38, -0.41, -0.60, -0.67, -0.28 (mean -0.45; controls 1 of 18).
For GFNLNEYGIS / VIYADGVRTAYADSVK / GNVAGTFDV, the assay gave -0.52, -0.73, -0.82, -1.10, -0.80, -0.61 (mean -0.76; controls 1 of 18).
For GFDLNEYGIS / VIYADGQRTAYADSVK / GENAGTFVQ, the assay gave nd, nd, 1.03, nd, nd, 1.24 (mean 1.14; controls 0 of 18).
For GFDLDEYGIS / VIYADGRRTAYIDSVK / GNQAGTFDV, the assay gave -0.32, -0.81, -0.85, -0.80, -0.58, -0.87 (mean -0.70; controls 0 of 18).
For GFDLNEYGIS / VIYADGVRTAYADSVK / GNIAGTFDV, the assay gave -0.26, -0.39, -0.52, -0.46, -0.49, -0.39 (mean -0.42; controls 0 of 18).
For GFDLNEYGIS / VIYADGSRTAYADSVK / GTNAGTFDL, the assay gave -0.38, -0.46, -0.53, -0.78, -0.34, -0.19 (mean -0.45; controls 1 of 18).
For GFDLNEYGIS / VIYADGMRTYYADSVK / GQVAGTFDI, the assay gave 0.29, 0.19, -0.35, -0.35, -0.04, 0.05 (mean -0.04; controls 0 of 18).
For GFDLDEYGIS / VIYADGMRTAYADNVK / GEVAGTFDI, the assay gave 0.33, 0.17, -0.09, 0.03, 0.17, 0.73 (mean 0.22; controls 0 of 18).
For GFDLNEYGIS / VIYADGMRTFYADSVK / GNQAGTFDV, the assay gave -0.37, -0.35, -0.38, -0.32, -0.35, -0.28 (mean -0.34; controls 0 of 18).
For GFDLNEYGIS / VIYADGKRTYYADSVK / GEVAGTFDQ, the assay gave -0.32, -0.57, -0.27, -0.65, -1.20, -0.25 (mean -0.54; controls 0 of 18).
For GFDLNEYGIS / VIYADGRRTAYADKVK / GNVAGTFDV, the assay gave -0.48, -0.29, -0.33, -0.80, -0.57, -0.61 (mean -0.51; controls 0 of 18).
For GFNLDEYGIS / VIYADGVRTAYADSVK / GNVAGTFDV, the assay gave -1.09, -1.34, -1.40, -1.24, -0.77, -0.97 (mean -1.14; controls 0 of 18).
For GFDLNEYGIS / VIYADGMRTFYADSVK / GEQAGTFDV, the assay gave -0.46, -0.73, -0.70, -0.74, -0.74, -0.69 (mean -0.68; controls 0 of 18).
For GFDLNEYGIS / VIYADGSRTAYTDSVK / GQNAGTFDV, the assay gave nd, nd, nd, nd, nd, nd (controls 0 of 18).
For GFDLDEYGIS / VIYADGSRTAYSDSVK / GNVAGTFDV, the assay gave 3.40, 2.01, 1.61, nd, 1.20, 0.78 (mean 1.80; controls 0 of 18).

Excerpt, the final 5 entries:

For GFDLNEYGIS / VIYADGRRTAYADKVK / GNVAGTFDV, the assay gave -0.48, -0.29, -0.33, -0.80, -0.57, -0.61 (mean -0.51; controls 0 of 18).
For GFNLDEYGIS / VIYADGVRTAYADSVK / GNVAGTFDV, the assay gave -1.09, -1.34, -1.40, -1.24, -0.77, -0.97 (mean -1.14; controls 0 of 18).
For GFDLNEYGIS / VIYADGMRTFYADSVK / GEQAGTFDV, the assay gave -0.46, -0.73, -0.70, -0.74, -0.74, -0.69 (mean -0.68; controls 0 of 18).
For GFDLNEYGIS / VIYADGSRTAYTDSVK / GQNAGTFDV, the assay gave nd, nd, nd, nd, nd, nd (controls 0 of 18).
For GFDLDEYGIS / VIYADGSRTAYSDSVK / GNVAGTFDV, the assay gave 3.40, 2.01, 1.61, nd, 1.20, 0.78 (mean 1.80; controls 0 of 18).

The parent sequence was in this pool as ten entries: three were never detected, three once, and four in most replicates, with averages from 0.34 to 2.37.
Empty control strains, which show no peptide, gave a signal in 1% of pairings with all heavy chain designs; the median was 2.08 and 95% of these signals were weaker than 0.84. No background was subtracted. Also given: how often the same scFv was detected with the empty control strains.
The range of this assay differs from that of the first round, and the authors advise against merging the two.

Source: Li et al. 2023 (doi:10.1038/s41467-023-39022-2), MIT Lincoln Laboratory and A-Alpha Bio; data file from the FLAb repository.